Chains of the proteins cited; added tags and fusions are not shown.
UniProt P61169, whole entry: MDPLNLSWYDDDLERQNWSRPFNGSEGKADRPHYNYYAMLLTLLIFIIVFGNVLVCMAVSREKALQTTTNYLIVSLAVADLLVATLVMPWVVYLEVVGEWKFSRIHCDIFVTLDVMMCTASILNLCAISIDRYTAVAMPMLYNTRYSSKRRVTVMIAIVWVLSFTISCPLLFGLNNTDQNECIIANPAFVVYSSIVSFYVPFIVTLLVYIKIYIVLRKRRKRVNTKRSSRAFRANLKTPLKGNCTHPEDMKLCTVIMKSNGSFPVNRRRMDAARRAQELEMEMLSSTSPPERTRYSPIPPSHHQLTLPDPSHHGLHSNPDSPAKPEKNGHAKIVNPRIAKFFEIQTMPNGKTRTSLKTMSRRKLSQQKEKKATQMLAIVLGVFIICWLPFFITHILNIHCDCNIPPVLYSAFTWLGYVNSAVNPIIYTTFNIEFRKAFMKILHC

In patent US4820715A, “Anti-emetic quinuclidinyl benzamides” (Bristol-Myers Company, priority 1987, dated 1989):

Biological target: dopaminergic (D2) receptors (Rattus norvegicus, UniProt P61169)
Experiment: biochemical
Format: binding
Details: striatal rat brain homogenates, ^3H-spiperone, 37° C., 15 minutes; read-out: 3H-Spiperone Displacement IC50
Protocol: Rats (150±10 g; Charles River) were decapitated, the corpus striatum dissected out and frozen on dry ice. The tissues were pooled and stored at -80° C. until used. Homogenates (Brinkmann Polytron) of the corpus striatum in cold HEPES.KOH buffer (final pH=7.4) were centrifuged at 39,000×G. The supernatant was discarded and the pellets were re-suspended in HEPES.KOH buffer and re-centrifuged as above.
Tests to determine the Inhibitory Concentration50 (IC50) of the compounds of Formula I and reference compounds versus ^3 H-spiperone were conducted as follows. Tubes containing either 100 μL of buffer mixture (for total binding), 100 μL of buffer mixture plus 100 μL of 10^-4 M D(+)-butaclamol (for blanks, i.e. non-specific binding), or 100 μL of buffer mixture containing 10^-7, 10^-6 or 10^-5 M test compound were prepared. To each were added 100 μL of a solution of ^3 H-spiperone (New England Nuclear) in buffer mixture (2000 c.p.m. in the incubation mixture) and 800 μL of the striatal tissue suspension. The tubes were then diluted to 1 mL with buffer mixture, giving a final concentration of 10^-8, 10^-7 or 10^-6 M test compound and approximately 100 pM ^3 H-spiperone. The samples were incubated at 37° C. for 15 minutes, filtered in vacuo on glass fiber filters and counted by liquid scintillation spectrometry. […] All samples were run in duplicate.

- IC50: 310 nM
SMILES: CCN(CC)CCNC(=O)c1cc(Cl)c(N)cc1OC [Metoclopramide, reference compound]
